In ChEMBL document CHEMBL5042486, “Discovery and Preclinical Characterization of BIIB091, a Reversible, Selective BTK Inhibitor for the Treatment of Multiple Sclerosis” (J Med Chem, 2022) one finds IC50 and Kd data, which are given here for 3 molecules.

Amino acid sequences for entries named in this document (tags omitted). A change or cut given only in a name is not applied to a line headed by its entry.
UniProt Q06187: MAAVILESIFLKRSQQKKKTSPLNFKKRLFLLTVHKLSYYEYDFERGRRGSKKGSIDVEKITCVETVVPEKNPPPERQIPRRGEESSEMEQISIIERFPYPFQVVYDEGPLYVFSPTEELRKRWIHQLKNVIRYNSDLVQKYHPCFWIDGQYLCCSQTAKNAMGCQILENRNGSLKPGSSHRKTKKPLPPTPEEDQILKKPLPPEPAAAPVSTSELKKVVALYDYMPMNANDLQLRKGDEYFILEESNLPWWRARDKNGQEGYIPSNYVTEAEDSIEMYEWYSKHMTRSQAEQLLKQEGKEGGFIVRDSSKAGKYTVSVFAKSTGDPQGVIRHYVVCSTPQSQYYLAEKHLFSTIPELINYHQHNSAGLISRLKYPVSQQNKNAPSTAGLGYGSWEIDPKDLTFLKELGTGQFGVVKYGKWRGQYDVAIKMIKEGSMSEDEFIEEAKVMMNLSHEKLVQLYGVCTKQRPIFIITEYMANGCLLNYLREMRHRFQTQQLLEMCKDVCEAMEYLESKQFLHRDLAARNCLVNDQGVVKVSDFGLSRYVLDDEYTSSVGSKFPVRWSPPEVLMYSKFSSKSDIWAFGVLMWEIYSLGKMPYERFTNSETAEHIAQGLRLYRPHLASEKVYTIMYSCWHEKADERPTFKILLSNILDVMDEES

The target in experiment [1] is T1, Tyrosine-protein kinase BTK (Homo sapiens, UniProt Q06187).
Experiment [2] concerns the target T1, Tyrosine-protein kinase BTK. In words: Inhibition of BTK phosphorylation in human whole blood assessed as reduction in BTK phosphorylation incubated for 30 mins. The experiment is classed as tissue-based.
Experiment [3] has the same target. This is another data set of the same source.
Experiment [4] has the same target. In words: Inhibition of human BTK using fluorescein-labeled polyGAT peptide as substrate incubated for 30 mins by FRET assay.
Experiment [5] shares this target. In words: Binding affinity to wild-type human full length BTK (M1 to S659 residues) expressed in mammalian expression system by Kinomescan method.

Some results are limits rather than exact numbers.

The IC50 is the concentration that inhibits the measured activity by half. For `Cn1cc(Nc2nccc(-c3ccc4c(c3)CN(C3COC3)CC[C@H]4NC(=O)c3cn(C(C)(C)C)nn3)n2)cn1` [BIIB-091], the IC50 in experiment [1] was 5.4 nM; in experiment [2], 24 nM; in experiment [3] it was 6900 nM; in experiment [4], less than 0.5 nM.
As for `C=CC(=O)Nc1cccc(Nc2nc(Nc3ccc(OCCOC)cc3)ncc2F)c1` [SPEBRUTINIB], the concentration for half-maximal inhibition (IC50) in experiment [2] amounted to 40 nM; in experiment [4], 1 nM.
For orientation: Kd means the equilibrium constant for the complex coming apart. A low value points to a tighter complex. On to `C[C@@H]1CN(C2COC2)CCN1c1ccc(Nc2cc(-c3ccnc(N4CCn5c(cc6c5CC(C)(C)C6)C4=O)c3CO)cn(C)c2=O)nc1`, for which the Kd in experiment [5] is 0.24 nM. In experiment [4], this molecule displayed an IC50 of less than 1 nM.
